Earlier results, collected in US7858570B2, “Compositions and methods for removing urushiol and treating the resulting skin condition” (priority 2004, dated 2010).

nonylphenol ethoxylate [10 mol nonylphenol ethoxylate]
solubility in water: Soluble
